For one experiment, the system named is Cdc12 and mDia2. The experiment in a line: end-to-end annealing of actin filaments in the presence of formin. To be noted: filaments severed in the presence of Cdc12, or Cdc12- and mDia2-nucleated seeds.
The target in the next experiment is T1, Cdc12 (Schizosaccharomyces pombe, UniProt Q10059).
T1 sequence (Q10059 882-1390 limits assumed): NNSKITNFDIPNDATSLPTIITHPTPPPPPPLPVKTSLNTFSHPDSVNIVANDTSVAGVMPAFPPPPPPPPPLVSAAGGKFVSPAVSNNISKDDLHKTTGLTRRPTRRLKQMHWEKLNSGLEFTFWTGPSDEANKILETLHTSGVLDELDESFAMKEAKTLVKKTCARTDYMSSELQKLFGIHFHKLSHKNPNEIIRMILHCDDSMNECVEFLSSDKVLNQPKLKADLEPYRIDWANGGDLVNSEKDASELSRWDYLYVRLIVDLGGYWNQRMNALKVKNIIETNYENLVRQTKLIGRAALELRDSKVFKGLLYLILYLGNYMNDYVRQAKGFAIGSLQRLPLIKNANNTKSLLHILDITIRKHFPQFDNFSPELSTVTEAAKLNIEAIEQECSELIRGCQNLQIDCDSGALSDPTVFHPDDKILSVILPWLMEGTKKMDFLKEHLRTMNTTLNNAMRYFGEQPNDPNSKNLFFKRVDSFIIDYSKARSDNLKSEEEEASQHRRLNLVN
The experiment in a line: formin binding to pre-assembled barbed ends. To be noted: concentration dependent, absence of profilin.

The chains behind the UniProt entries cited, without tags or fusion partners. Residues count along the entry.
UniProt O08808, 552-1255 limits assumed: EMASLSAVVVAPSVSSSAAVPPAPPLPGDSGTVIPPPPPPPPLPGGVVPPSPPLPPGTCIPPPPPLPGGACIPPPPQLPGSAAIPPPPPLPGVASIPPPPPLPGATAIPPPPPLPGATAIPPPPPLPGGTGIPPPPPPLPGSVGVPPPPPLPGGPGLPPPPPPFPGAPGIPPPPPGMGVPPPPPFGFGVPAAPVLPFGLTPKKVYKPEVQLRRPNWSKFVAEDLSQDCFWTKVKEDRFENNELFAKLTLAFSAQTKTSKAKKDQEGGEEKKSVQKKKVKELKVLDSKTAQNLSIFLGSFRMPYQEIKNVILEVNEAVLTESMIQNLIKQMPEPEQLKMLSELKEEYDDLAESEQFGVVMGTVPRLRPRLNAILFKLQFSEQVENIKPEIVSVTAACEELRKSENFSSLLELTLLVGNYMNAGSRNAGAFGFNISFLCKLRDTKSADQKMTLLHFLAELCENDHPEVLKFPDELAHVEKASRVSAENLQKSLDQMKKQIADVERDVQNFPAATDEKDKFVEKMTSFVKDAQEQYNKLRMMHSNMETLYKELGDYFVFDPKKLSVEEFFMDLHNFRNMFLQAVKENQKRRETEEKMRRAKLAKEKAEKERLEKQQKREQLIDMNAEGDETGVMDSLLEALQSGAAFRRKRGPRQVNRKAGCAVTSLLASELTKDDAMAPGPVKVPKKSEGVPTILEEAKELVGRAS

Another experiment has as its target GST-mDia1(FH1FH2) (Mus musculus, UniProt O08808). The experiment in a line: TIRF microscopy of filaments assembled from formin immobilized on beads. To be noted: 100 μM SMIFH2, by 375 seconds; slightly more than four without SMIFH2.
The target in the next experiment is CYK-1 (Caenorhabditis elegans, UniProt Q7JP75). The experiment in a line: pyrene-actin assembly fluorescence. It is filed as biochemical. To be noted: 2.5 μM actin monomer, 100 nM formin, pH 7.0.

This note sets out measurements from PMC2784894 (Chemistry & biology, 2009).

The structures appear in SMILES notation.

With `O=C1NC(=S)N(c2cccc(Br)c2)C(=O)/C1=C/c1ccco1` [SMIFH2], the “end-to-end annealing of formin-associated filaments” value with Cdc12 and mDia2 is reported as “does not allow formin to inhibit the end-to-end annealing”. Further, on Cdc12, the “binding of Cdc12 to the barbed end” value is reported as “prevents Cdc12 from binding to the barbed end”. On GST-mDia1(FH1FH2), the “average number of filaments per formin-absorbed bead” value is recorded as “less than 0.05 filaments”.

As for `O=C1NC(=S)N(c2cccc(Br)c2)C(=O)C1=Cc1ccco1` [compound 1, SMIFH2], the “maximum polymerization rate at 50 μM” value at CYK-1 is reported as “SMIFH2 also inhibits actin assembly by evolutionarily diverse formin FH1FH2 constructs including C. elegans CYK-1”.
